Results from PMC4887496, “The Mouthparts Enriched Odorant Binding Protein 11 of the Alfalfa Plant Bug Adelphocoris lineolatus Displays a Preferential Binding Behavior to Host Plant Secondary Metabolites” (Frontiers in Physiology, 2016).

Chains of the proteins cited; added tags and fusions are not shown. Residues count along the entry.
UniProt F4Y5P9, 20-150 limits assumed: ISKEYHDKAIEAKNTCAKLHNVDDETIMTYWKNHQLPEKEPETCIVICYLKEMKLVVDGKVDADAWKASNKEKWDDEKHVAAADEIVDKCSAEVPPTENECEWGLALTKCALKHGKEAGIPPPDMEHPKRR

Molecular target: recombinant AlinOBP11 (Adelphocoris lineolatus, UniProt F4Y5P9)
Conditions: 2 μM protein, 2 μM 1-NPN

O=c1c(O)c(-c2ccc(O)c(O)c2)oc2cc(O)cc(O)c12 [Quercetin] showed an IC50 (read-out: IC50 (μM) AlinOBP11, 50 mM Tris-HCl pH 7.4, competitor 2 to 30 μM, 25°C) of 3.36 µM and a Ki (read-out: Ki (μM) AlinOBP11, calculated from IC50: Ki = [IC50]/(1+[1-NPN]/K1-NPN), pH 7.4) of 2.63 µM.
